Results: US8865750B2, “Small molecule inhibitors of RGS proteins” (The Regents of The University of Michigan, priority 2011, dated 2014)

The chains behind the UniProt entries cited, without tags or fusion partners.
UniProt P57771, whole entry: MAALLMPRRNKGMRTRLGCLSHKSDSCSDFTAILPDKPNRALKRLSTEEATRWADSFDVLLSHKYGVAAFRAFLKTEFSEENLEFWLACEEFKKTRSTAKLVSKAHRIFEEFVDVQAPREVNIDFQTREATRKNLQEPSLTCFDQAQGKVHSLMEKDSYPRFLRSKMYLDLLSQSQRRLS

How the values were obtained:
[1] = system: HEK293 cells; assay: Calcium mobilization induced by compound alone; conditions: 10 μM compound, percentage of effect of 10 μM CCG-50014;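 further: percent of response to 10 µM reference CCG-50014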
[2] = target: RGS8 (Homo sapiens (Human), UniProt P57771); assay: FCPIA: Gαo binding to RGS8

RGS8 Hill Slope ([2]; Table 3): −0.58
IC50 ([2]; read-out: RGS8 IC50, Table 3, duplex FCPIA, average of two experiments): 32.2 µM
SMILES: CC(C)(C)c1ccc(-n2c(=O)sn(-c3cccc(Cl)c3)c2=O)cc1
Calcium transient (% 50014) [1]: 31.8 % 50014
